According to published antibiotic growth screens (doi:10.1038/s41589-023-01349-8):
The list shows a part of the results.

tested on: A. baumannii ATCC 17978; experiment: relative growth (fraction of control); higher = less inhibition; details: 50 µM

Row | SMILES | relative growth
1 | C[C@H](O)C#Cc1ccc2c(c1)O[C@H](CN(C)C(=O)CN(C)C)[C@H](C)CN([C@H](C)CO)S2(=O)=O | 1.04
2 | COc1ccccc1N1C(N)=NC(N)=NC1(C)C | 0.91
3 | NC[C@@H]1O[C@H](O[C@@H]2[C@@H](CO)OC(O[C@@H]3[C@@H](O)[C@H](N)C[C@H](N)[C@H]3O[C@H]3O[C@H](CO)[C@@H](O)[C@H](O)[C@H]3N)[C@@H]2O)[C@H](N)[C@@H](O)[C@@H]1O.O=S(=O)(O)O (some centres not stated) | 0.153
4 | C=CCN1C(=O)[C@@]2(O[C@@H](CCO)[C@H]([Si](C)(C)c3ccc(OC)cc3)[C@H]2C)c2cc(N3C(=O)c4cccc5cccc3c45)ccc21 | 1.22
5 | CCN(CC)C(C)CN1c2ccccc2Sc2ccccc21.Cl (configuration not stated) | 0.962
6 | CC1=C(C(=O)O)N2C(=O)[C@@H](NC(=O)C(N)c3ccccc3)[C@H]2SC1 (some centres not stated) | 0.894
7 | CNc1ccccc1C(=O)N1CCc2c([nH]c3ccccc23)C1=O | 1.01
8 | NCCCC(N)C(=O)O.NCCCC(N)C(=O)O.O=C(O)CCC(=O)C(=O)O | 1.11
9 | CN1CCN(C(=O)c2ccc(N)cc2)CC1 | 1.1
10 | CC(=O)OC1O[C@@H](c2ccoc2)[C@]2(C)CCC3[C@]4(C)C(C[C@H](OC(C)=O)C[C@@H]4OC(C)=O)C[C@H](OC(C)=O)[C@@]3(C)C23OC13 (some centres not stated) | 0.926
11 | COc1cccc(S(=O)(=O)N(C)C[C@H]2Oc3cc(C#CCC(C)C)ccc3S(=O)(=O)N([C@@H](C)CO)C[C@@H]2C)c1 | 1.21
12 | COc1cccc2ccc(Cl)nc12 | 0.932
13 | COC(=O)c1ccccc1S(=O)(=O)NC(=O)Nc1nc(C)c2c(n1)CCS(=O)(=O)C2 | 1.13
14 | COc1ccccc1OCC(O)COC(N)=O (configuration not stated) | 0.979
15 | COc1cccc(CNC(=O)C[C@H]2C=C[C@@H](NC(=O)C3CCOCC3)[C@H](CO)O2)c1 | 1.11
16 | CC(=O)O[C@H]1CC[C@@]2(C)C(CC[C@]3(C)C2CC=C2C4CC(C)(C)CC[C@]4(C)CC[C@]23C)C1(C)C (stereo partly drawn) [beta-AMYRIN ACETATE] | 1.15
17 | CC(C)(C)C(=O)C[C@@H](Nc1ccccc1)c1ccc(Cl)cc1 | 1.1
18 | O=C(NO)c1cn(-c2cccc(C(=O)N3CCC4(CC3)C(=O)NCN4c3ccccc3)c2)nn1 | 0.131
19 | O=C(Cc1ccncc1)NCC[C@@H]1CC[C@H](NC(=O)C2CCOCC2)[C@@H](CO)O1 | 1.05
20 | Cc1ccc(-c2ccc3c(c2)O[C@@H](CN(C)C(=O)CN(C)C)[C@@H](C)CN([C@H](C)CO)S3(=O)=O)cc1 | 0.919
21 | CCOc1nc2cccc(C(=O)OCc3oc(=O)oc3C)c2n1Cc1ccc(-c2ccccc2-c2noc([O-])n2)cc1.[K+] | 1.1
22 | C[C@H](CO)N1C[C@H](C)[C@@H](CN(C)C(=O)c2cnccn2)Oc2cc(C#CCC3CCCC3)ccc2S1(=O)=O | 0.807
23 | C=C1[C@@H]2[C@H]3OC(=O)[C@@H](C)[C@@H]3[C@@H](O[C@@H]3O[C@H](CO)[C@@H](O)[C@H](O)[C@H]3O)CC(=C)[C@@H]2C[C@@H]1O | 1.06
24 | CCCSc1ccc2nc(NC(=O)OC)[nH]c2c1 | 1.41
25 | CC(c1nc(=O)[nH][nH]1)N1CCOC(O[C@H](C)c2cc(C(F)(F)F)cc(C(F)(F)F)c2)C1c1ccc(F)cc1 (some centres not stated) | 0.716
26 | CC(=O)Nc1cc2c(cc1N)OCCO2 | 0.998

Row | SMILES | relative growth
27 | COc1ccccc1S(=O)(=O)N[C@H]1CC[C@@H](CCNC(=O)C2CC2)O[C@H]1CO | 0.975
28 | CC(=O)NCCCC[C@@H]1NC(=O)[C@@H]2C[C@H](C(=O)NCCCCCCN)[C@H](c3cccc(OCCO)c3)N2C1=O | 1.08
29 | C=C(C)c1c2c(c(Cl)c3ccccc13)C[N+](CC)(CC)C2 | 0.994
30 | O=C(C[C@H]1CC[C@H]2[C@@H](COC[C@H](O)CN2C(=O)c2ccccc2F)O1)N1CCN(c2ccccc2)CC1 | 1
31 | CN(C/C=C/c1ccccc1)Cc1cccc2ccccc12.Cl | 0.919
32 | Cn1c(=O)c2c(ncn2CC(=O)N2CCN(C(=O)c3ccco3)CC2)n(C)c1=O | 1.08
33 | CC(C)C#Cc1ccc2c(c1)O[C@H](CN(C)C(=O)c1cccc(F)c1)[C@H](C)CN([C@H](C)CO)S2(=O)=O | 0.942
34 | O=S(=O)(NCC[C@@H]1CC[C@H](NS(=O)(=O)c2cccc(Cl)c2)[C@H](CO)O1)c1cccc(F)c1 | 0.984
35 | Cl.NCCc1ccc(O)c(O)c1 | 1.09
36 | CN(C)CCOc1ccc(C#N)cn1 | 1.04
37 | NNC(=S)NCc1ccc(F)cc1 | 1.06
38 | C[C@H](CCC(=O)O)[C@H]1CCC2C3C(CC[C@@]21C)[C@@]1(C)CC[C@@H](O)C[C@H]1C[C@@H]3O (some centres not stated) | 0.958
39 | Cc1ccc(N(CC2=NCCN2)c2cccc(O)c2)cc1.Cl | 0.968
40 | CS(=O)(=O)[O-].C[n+]1ccccc1/C=N/O | 0.964
41 | O=C1C[C@@](C(=O)NCc2ccccc2)(c2ccc([N+](=O)[O-])cc2)[C@@H](c2ccc(CO)cc2)N1CC12CC3CC(CC(C3)C1)C2 | 0.92
42 | CN(C)c1nc(SCC(N)=O)nc(N(C)C)n1 | 0.916
43 | O=C1C[C@]2(c3ccc([N+](=O)[O-])cc3)C(=O)N(C3CC3)c3cc(CO)ccc3[C@H]2N1CC12CC3CC(CC(C3)C1)C2 | 0.998
44 | COc1ccc2c(c1)[C@@H](NCC=C(C)C)[C@H](C)[C@H]2c1ccccc1 | 0.929
45 | COc1cc(O)ccc1C(C)=O | 0.934
46 | COCCOC(=O)N1C(=O)[C@@]2(c3ccccc31)[C@H](C(=O)Nc1nc3ccccc3s1)[C@H]1C(=O)O[C@H](c3ccccc3)[C@H](c3ccccc3)N1[C@@H]2c1ccccc1OCCO | 1.02
47 | O=C(O)c1ccc(N2CCCS2(=O)=O)cc1 | 1.09
48 | CC(C)(O)CC[C@@H](O)[C@](C)(O)C1CC[C@@]2(O)C3=CC(=O)C4C[C@@H](O)[C@@H](O)C[C@]4(C)C3CC[C@]12C (some centres not stated) | 0.934
49 | C[N+](C)(C)CCCCCCNC(=O)[C@@H]1C[C@@H]2C(=O)N[C@@H](CCCC[N+](C)(C)C)C(=O)N2[C@@H]1c1ccc(O)cc1 | 1.1
50 | CSc1[nH]c(=O)[nH]c(=O)c1C#N | 0.938
51 | COc1ccc(NC(=O)O[C@H]2[C@H](OC(=O)Nc3ccccc3-c3ccccc3)[C@H](OC(=O)Nc3ccccc3-c3ccccc3)[C@@H](OC)O[C@@H]2COC(=O)NCCCCCC(=O)NO)cc1 | 0.973
52 | Cn1cnc(S(=O)(=O)N[C@H]2CC[C@@H](CC(=O)N3CCN(c4ccccc4)CC3)O[C@H]2CO)c1 | 1.07

Row | SMILES | relative growth
53 | C=CCc1ccccc1OCC(O)CNC(C)C.Cl (configuration not stated) | 0.776
54 | C=CCN([C@@H](Cc1ccccc1)[C@@H](O)c1cn(CCCCCCNC(=O)C(=O)NC)nn1)S(=O)(=O)c1ccccc1[N+](=O)[O-] | 0.943
55 | CCCCCCCCCCCCCCCC(=O)OC[C@H](NC(=O)C(Cl)Cl)[C@H](O)c1ccc([N+](=O)[O-])cc1 | 1.01
56 | C[C@H]1CCc2[nH]c3ccccc3c2C1 | 0.917
57 | Cn1c(=O)[nH]c2nc[nH]c2c1=O | 1.04
58 | O=C(/C=C/c1ccc(O)c(O)c1)O[C@@H]1C[C@](O)(C(=O)O)C[C@@H](O)[C@H]1O | 0.925
59 | CS(=O)(=O)O.C[C@H]1COc2c(C3(N)CC3)c(F)cc3c(=O)c(C(=O)O)cn1c23 | 0.151
60 | COc1cccc(C#Cc2cnc3c(c2)C(=O)N([C@H](C)CO)C[C@H](C)[C@@H](CN(C)C(=O)C2CCOCC2)O3)c1 | 0.813
61 | CC(C)N1C(=O)[C@@]2(Cc3ccccc31)c1ccccc1C(=O)N(Cc1ccccc1Cl)[C@H]2c1ccc(CO)cc1 | 0.905
62 | C=C1CC(=O)C2=C(C)C[C@H](O[C@@H]3O[C@H](CO)[C@@H](O)[C@H](O)[C@H]3O)[C@H]3C(=C)C(=O)O[C@@H]3[C@@H]12 | 1.01
63 | NC(Cc1cc(I)c(O)c(I)c1)C(=O)O.O.O (configuration not stated) | 1.2
64 | C=CCOC(=O)[C@H]1[C@@H]2C(=O)O[C@@H](c3ccccc3)[C@@H](c3ccccc3)N2[C@@H](c2ccc(OCCOC(=O)[C@H]3C[C@H]4C(=O)N[C@@H](CCCC[N+](C)(C)C)C(=O)N4[C@H]3c3cccc(OCCO)c3)cc2)[C@]12C(=O)Nc1ccc(I)cc12 | 1.14
65 | C[C@H](O)C#Cc1ccc2c(c1)O[C@@H](CN(C)C(=O)Cc1ccccn1)[C@H](C)CN([C@@H](C)CO)S2(=O)=O | 0.974
66 | O=C(C[C@H]1CC[C@@H]2[C@H](COC[C@@H](O)CN2S(=O)(=O)c2ccccc2F)O1)NCc1ccccc1F | 1.07
67 | C[C@H](CO)N1C[C@H](C)[C@H](CN(C)C(=O)Cc2ccccc2)Oc2cc(-c3cncnc3)ccc2S1(=O)=O | 0.827
68 | O=C(C[C@H]1C[C@H]2c3cc(NC(=O)Cc4ccncc4)ccc3O[C@H]2[C@H](CO)O1)NCCN1CCCCC1 | 0.911
69 | CNC(C)[C@@H]1CC[C@@H](N)[C@@H](OC2[C@@H](N)C[C@@H](N)[C@H](OC3OC[C@](C)(O)[C@H](NC)[C@H]3O)[C@H]2O)O1.O=S(=O)(O)O (some centres not stated) | 0.605
70 | CC(C)COCC(CN(Cc1ccccc1)c1ccccc1)N1CCCC1.Cl (configuration not stated) | 1.13
71 | C[C@H](CO)N1C[C@H](C)[C@@H](CN(C)S(=O)(=O)c2ccccc2F)Oc2cc(-c3ccncc3)ccc2S1(=O)=O | 0.876
72 | C#C[C@]1(OC(C)=O)CCC2C3CCC4=C/C(=N/O)CCC4C3CC[C@@]21CC (some centres not stated) | 1.29
73 | C[C@]1(Cn2ccnn2)[C@H](C(=O)O)N2C(=O)C[C@H]2S1(=O)=O | 0.144
74 | O=C(C[C@@H]1C=C[C@H](NC(=O)Nc2cc(F)ccc2F)[C@@H](CO)O1)NCCCN1CCOCC1 | 1.15
75 | CO[C@H]1CN(C)C(=O)c2cc(NS(=O)(=O)c3ccccc3)ccc2OC[C@@H](C)N(C(=O)NC(C)C)C[C@H]1C | 0.887
76 | CN(CC(=O)NCc1ccccn1)S(=O)(=O)c1cc(Br)cnc1N | 1.04
77 | N[C@]1(C(=O)O)C[C@H](C(=O)O)C1 | 1.26
